# Only a part is listed here, and it is no random draw. Active and inactive are the calls of the source.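 How the source made its calls: active means inhibition above the mean plus 3 SD of all compounds in the same screening run (cut at about 4.5% in these data); inactive means the rest.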
# Tested on: metallo-beta-lactamase IMP-1 (Pseudomonas aeruginosa)
# Test: IMP-1 metallo-beta-lactamase inhibitors, primary screen, biochemical, epi-absorbance readout, Pseudomonas aeruginosa enzyme (AID 1556);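 further: 0% = IMP-1 with DMSO and 100% = DMSO wells lacking enzyme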
# Conditions: purified IMP-1, nitrocefin hydrolysis, epi-absorbance fluorescence; at 5.6 µM; hits give high values
row,SMILES,inhibition
1,CP(=O)(Nc1ccccc1)Oc1ccc(F)cc1 (centres undefined),inactive: -3.4%
2,O=[N+]([O-])c1cc([N+](=O)[O-])c(OC2CCCCC2O)c([N+](=O)[O-])c1 (centres undefined),inactive: -2.8%
3,CCCCCOc1ccc(NP(C)(=O)Oc2ccc(Cl)cc2Cl)cc1 (centres undefined),inactive: 0.16%
4,CCN(CC)CCCOC(=O)C(O)(c1ccccc1)C1CCCCC1 (centres undefined),inactive: -0.15%
5,CCOC(=O)c1ccc(NP(C)(=O)Oc2ccc(F)cc2)cc1 (centres undefined),inactive: -1.97%
6,COc1ccc(OP(C)(=O)Nc2ccc(SC(F)(F)F)cc2)cc1 (centres undefined),inactive: 0.08%
7,O=C(OC1CN2CCC1CC2)c1ccc([N+](=O)[O-])cc1 (centres undefined),inactive: -1.7%
8,O=C(OCCN1CCN(CCOCc2ccccc2)CC1)C(O)(c1ccccc1)c1ccccc1,inactive: 0.24%
9,CP(=O)(Nc1ccccc1F)Oc1ccccc1 (centres undefined),inactive: -3.28%
10,CC(C)c1ccc(OP(C)(=O)Nc2ccc(SC(F)(F)F)cc2)cc1 (centres undefined),inactive: -1.12%
11,Cc1ccccc1NP(C)(=O)Nc1ccccc1C,inactive: -2.75%
12,CP(=O)(Nc1ccc2c(c1)OCCO2)Oc1ccccc1 (centres undefined),inactive: -2.51%
13,CCOP(C)(=S)SCC(=O)NC(C)(CC)C(=O)O (centres undefined),inactive: -1.54%
14,CP(=O)(Nc1ccc(SC(F)(F)F)cc1)Oc1ccc(F)cc1 (centres undefined),inactive: -2.86%
15,O=[N+]([O-])c1ccc(OP2(=O)COCCO2)cc1 (centres undefined),inactive: -3.14%
16,O=[N+]([O-])c1cc([N+](=O)[O-])c(NCC2CCS(=O)(=O)C2)c([N+](=O)[O-])c1 (centres undefined),inactive: -1.93%
17,Cc1cc(-c2cccc3ccccc23)c(C)cn1.O=[N+]([O-])c1cc([N+](=O)[O-])c(O)c([N+](=O)[O-])c1,inactive: -2.48%
18,CN(C)CCOC(=O)C(O)(c1ccccc1)C1CCCCC1 (centres undefined),inactive: -3.09%
19,COc1ccc(NP(C)(=O)Oc2ccccc2OC)cc1 (centres undefined),inactive: 0.1%
20,COc1ccc(OP(C)(=O)Nc2cccc(Br)c2)cc1 (centres undefined),inactive: -1.7%
21,CCOC(=O)c1ccc(NP(C)(=O)Oc2ccc(Cl)cc2)cc1 (centres undefined),inactive: -2.18%

row,SMILES,inhibition
1,CP(=O)(OC12CC3CC(CC(C3)C1)C2)OC12CC3CC(CC(C3)C1)C2,inactive: -4.61%
2,CN(C)C(=O)c1c([N+](=O)[O-])cc([N+](=O)[O-])cc1[N+](=O)[O-],inactive: -2.88%
3,CC(C)(C)c1ccc(OP(C)(=O)O)cc1,inactive: -2.58%
4,COc1ccccc1OP(C)(=O)Nc1ccccc1Br (centres undefined),inactive: -1.95%
5,CP(=O)(Nc1ccc(Cl)cc1)Oc1ccc(F)cc1 (centres undefined),inactive: -2.93%
6,O=C(OCCCN1CCCC1)C(O)(c1ccccc1)C1CCCCC1 (centres undefined),inactive: -1.09%
7,COc1ccccc1OP(C)(=O)Nc1c(C)n(C)n(-c2ccccc2)c1=O (centres undefined),inactive: -1.17%
8,CCc1ccc(OP(C)(=O)Nc2cccnc2)cc1 (centres undefined),inactive: 1.05%
9,CP(=O)(Oc1ccccc1)N1CCOC1=O (centres undefined),inactive: -2.63%
10,COc1ccc(OP(C)(=O)Nc2ccc(Br)cc2)cc1 (centres undefined),inactive: -2.93%
11,CCN(CC)CC(O)COC(=O)C(O)(c1ccccc1)C1CCCCC1 (centres undefined),inactive: -4.35%
12,COc1ccccc1OP(C)(=O)Nc1ccc(C)cc1C (centres undefined),inactive: -2.68%
13,CP(=O)(Nc1ccccn1)Oc1ccccc1 (centres undefined),inactive: -3.3%
14,CCc1ccc(OP(C)(=O)O)cc1,inactive: -2.71%
15,O=[N+]([O-])c1cc([N+](=O)[O-])c(Nc2ccccn2)c([N+](=O)[O-])c1,inactive: -1.28%
16,Cc1c(NP(C)(=O)Oc2ccc(C(C)C)cc2)c(=O)n(-c2ccccc2)n1C (centres undefined),active: 4.95%
17,COc1ccc(OP(C)(=O)Nc2ccccn2)cc1 (centres undefined),inactive: -3.92%
18,CN(C)CCOC(=O)C(O)(c1ccccc1)C1CCCC1 (centres undefined),inactive: -3.21%
19,COc1ccccc1OP(C)(=O)Nc1ccc(Br)cc1 (centres undefined),inactive: -2.42%
20,CP(=O)(OCCOc1ccccc1)OCCOc1ccccc1,inactive: -2%
21,CP(=O)(Nc1ccc(Cl)cc1Cl)Oc1ccccc1 (centres undefined),inactive: -1.59%

row,SMILES,inhibition
1,Cc1nc2ccc3ccccc3c2o1.O=[N+]([O-])c1cc([N+](=O)[O-])c(O)c([N+](=O)[O-])c1,inactive: -5.44%
2,COc1ccccc1OP(C)(=O)Nc1ccc(C)c(C)c1 (centres undefined),inactive: -3.7%
3,COc1ccc(OP(C)(=O)Nc2ccccc2Br)cc1 (centres undefined),inactive: -3.12%
4,Cc1cc(C)cc(OP(C)(=O)Nc2cccc(C(F)(F)F)c2)c1 (centres undefined),inactive: -2.19%
5,Cc1cc(C)cc(OP(C)(N)=O)c1 (centres undefined),inactive: -2.37%
6,COc1ccc(OP(C)(=O)Nc2cccc(F)c2)cc1 (centres undefined),inactive: -5.03%
7,COc1ccccc1OP(C)(=O)Nc1cc(Cl)ccc1C (centres undefined),inactive: -1.38%
8,Cc1ccc(NP(C)(=O)Oc2ccccc2)c(C)c1 (centres undefined),inactive: -1.78%
9,COc1ccccc1OP(C)(=O)Nc1ccc(C)cc1 (centres undefined),inactive: -1.35%
10,CCOC(=O)c1ccc(NP(C)(=O)Oc2ccccc2)cc1 (centres undefined),inactive: -2.9%
11,O=[N+]([O-])c1ccc2c(c1)C=Nc1ccccc1O2,inactive: -0.8%
12,Cc1cccc(C)c1OP(C)(N)=O (centres undefined),inactive: -2.56%
13,CC(C)(C)c1ccc(OP(C)(=O)Nc2ccc(SC(F)(F)F)cc2)cc1 (centres undefined),inactive: -2.44%
14,CCN(CC)CCCOC(=O)C(O)(c1ccccc1)c1ccccc1,inactive: -4.34%
15,CP(=O)(Nc1ccccn1)Oc1ccc(Cl)cc1 (centres undefined),inactive: -4.06%
16,CCOC(=O)c1ccc(NP(C)(=O)Oc2ccc(OC)cc2)cc1 (centres undefined),inactive: -2.44%
17,CCOP(C)(=S)SCC(=O)NC(C)C(=O)O (centres undefined),inactive: -2.54%
18,Cc1cc(C)cc(OP(C)(=O)Nc2ccc(SC(F)(F)F)cc2)c1 (centres undefined),inactive: -1.75%
19,CCc1ccc(OP(C)(=O)N2CCN(c3ccc([N+](=O)[O-])cc3)CC2)cc1 (centres undefined),inactive: -3.77%
20,CP(=O)(NC(=O)Nc1ccccc1)Oc1ccccc1 (centres undefined),inactive: -2.23%
21,CP(=O)(Oc1ccccc1)OC(c1ccccc1)C(F)(F)F (centres undefined),inactive: -1.04%

row,SMILES,inhibition
1,CP(=O)(Nc1ccc(SC(F)(F)F)cc1)Oc1ccc(Cl)cc1 (centres undefined),inactive: -2.38%
2,Cc1cccc(C)c1OP(C)(=O)Nc1ccc(SC(F)(F)F)cc1 (centres undefined),inactive: 2.57%
3,CP(=O)(Nc1ccccc1Br)Oc1ccccc1 (centres undefined),inactive: -1.3%
4,COc1ccccc1OP(C)(=O)Nc1ccccc1 (centres undefined),inactive: -2.66%
5,CP(=S)(Nn1cnnc1)Oc1ccccc1 (centres undefined),inactive: -1.79%
6,CP(=O)(Nc1ccc(SC(F)(F)F)cc1)Oc1ccccc1 (centres undefined),inactive: -2.2%
7,CCCOc1ccc(NP(C)(=O)Oc2ccc(Cl)cc2)cc1 (centres undefined),inactive: -1.33%
8,CN1CCCCC1COC(=O)C1(O)c2ccccc2CCc2ccccc21 (centres undefined),inactive: -1.86%
9,COc1ccccc1OP(C)(=O)Nc1c(C)cccc1C (centres undefined),inactive: -2.81%
10,CCOC(=O)C(CC)C1=NC(C)(C)Cc2ccccc21.O=[N+]([O-])c1cc([N+](=O)[O-])c(O)c([N+](=O)[O-])c1 (centres undefined),inactive: -1.73%
11,O=[N+]([O-])c1cc([N+](=O)[O-])c(Nc2nnnn2CCO)c([N+](=O)[O-])c1,inactive: -4.05%
12,Cc1nc2ccc3ccccc3c2s1.O=[N+]([O-])c1cc([N+](=O)[O-])c(O)c([N+](=O)[O-])c1,active: 19.2%
13,O=[N+]([O-])c1cc([N+](=O)[O-])c(-n2nnc3ccccc32)c([N+](=O)[O-])c1,inactive: -3.67%
14,Cc1ccc(C)c(NP(C)(=O)Oc2ccccc2)c1 (centres undefined),inactive: -2.05%
15,CP(=O)(Nc1cccc(Br)c1)Oc1ccccc1 (centres undefined),inactive: -2.76%
16,Cc1cc(C)cc(OP(C)(=O)Nc2ccccn2)c1 (centres undefined),inactive: -2.07%
17,CCOC(=O)c1ccc(NP(C)(=O)Oc2cc(C)cc(C)c2)cc1 (centres undefined),inactive: -3.25%
18,Cc1cc(C)cc(OP(C)(=O)Nc2ccc(C)cc2C)c1 (centres undefined),inactive: -0.3%
19,COc1ccccc1OP(C)(=O)Nc1cccc(Br)c1 (centres undefined),inactive: -4.95%
20,CC1=NCCc2c1[nH]c1ccccc21.O=[N+]([O-])c1cc([N+](=O)[O-])c(O)c([N+](=O)[O-])c1,inactive: -3.3%
21,O=C(O)c1cccc(Nc2c([N+](=O)[O-])cc([N+](=O)[O-])cc2[N+](=O)[O-])c1,inactive: 0.64%
